Earlier results in patent US20050255458A1, “Drug discovery assays based on the biology of chronic disease” (priority 2002, published 2005).

Sequences of proteins named here, by UniProt entry; tags and fusion partners are left off. A change or cut given only in a name is not applied to a line headed by its entry.
UniProt P10275: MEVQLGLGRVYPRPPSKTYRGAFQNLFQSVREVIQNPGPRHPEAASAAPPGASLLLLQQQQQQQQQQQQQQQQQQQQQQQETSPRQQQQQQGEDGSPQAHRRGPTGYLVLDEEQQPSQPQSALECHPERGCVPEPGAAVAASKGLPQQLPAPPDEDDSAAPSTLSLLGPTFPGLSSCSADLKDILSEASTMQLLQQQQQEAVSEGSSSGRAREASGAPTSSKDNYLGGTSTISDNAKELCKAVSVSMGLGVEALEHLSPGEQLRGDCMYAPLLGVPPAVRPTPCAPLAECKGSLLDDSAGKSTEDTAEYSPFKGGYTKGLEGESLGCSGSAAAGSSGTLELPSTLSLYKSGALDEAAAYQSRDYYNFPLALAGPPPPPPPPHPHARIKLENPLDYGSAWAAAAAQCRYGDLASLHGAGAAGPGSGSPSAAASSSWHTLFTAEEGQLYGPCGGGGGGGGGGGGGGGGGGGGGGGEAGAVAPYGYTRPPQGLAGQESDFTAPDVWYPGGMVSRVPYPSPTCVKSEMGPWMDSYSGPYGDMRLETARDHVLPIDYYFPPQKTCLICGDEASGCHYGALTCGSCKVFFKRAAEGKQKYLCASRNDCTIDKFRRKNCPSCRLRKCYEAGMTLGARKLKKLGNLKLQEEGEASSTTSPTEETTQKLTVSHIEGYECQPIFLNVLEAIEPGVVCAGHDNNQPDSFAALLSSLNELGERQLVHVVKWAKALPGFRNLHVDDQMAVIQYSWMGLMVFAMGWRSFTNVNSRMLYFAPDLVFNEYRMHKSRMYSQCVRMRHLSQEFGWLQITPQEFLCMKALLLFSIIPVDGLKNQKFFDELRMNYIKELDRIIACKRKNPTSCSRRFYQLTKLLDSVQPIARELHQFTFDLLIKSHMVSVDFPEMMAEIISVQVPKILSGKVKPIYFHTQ

Biological target: AR (Homo sapiens, UniProt P10275)
Settings: cited from earlier work

In the case of “[^3H]methyltrienolone [[3H]methyltrienolone (R1881)]”, the Kd is given as 0.9 ± 0.03 nM.
